Measurements taken from article PMC2893246 (Assay and drug development technologies, 2010).

Amino acid sequences for entries named in this document (tags omitted). A change or cut given only in a name is not applied to a line headed by its entry.
UniProt P08482: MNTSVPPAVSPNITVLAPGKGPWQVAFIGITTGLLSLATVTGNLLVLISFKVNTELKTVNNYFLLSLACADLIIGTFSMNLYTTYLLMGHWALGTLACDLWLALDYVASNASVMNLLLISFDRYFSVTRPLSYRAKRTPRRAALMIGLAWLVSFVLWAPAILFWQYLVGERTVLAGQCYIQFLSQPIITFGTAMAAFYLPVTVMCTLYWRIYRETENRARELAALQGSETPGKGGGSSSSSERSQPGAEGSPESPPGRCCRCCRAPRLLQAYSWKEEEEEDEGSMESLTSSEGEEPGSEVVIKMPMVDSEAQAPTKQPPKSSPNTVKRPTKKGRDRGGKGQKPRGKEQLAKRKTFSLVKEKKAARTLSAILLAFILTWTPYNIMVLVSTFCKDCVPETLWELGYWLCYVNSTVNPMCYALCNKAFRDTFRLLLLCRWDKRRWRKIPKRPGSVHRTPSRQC

Target: murine M1 muscarinic acetylcholine receptor (Rattus norvegicus, UniProt P08482)
Experiment: cell-based

Work on `CC(C)[N+]1(C)[C@@H]2CC[C@H]1C[C@@H](OC(=O)C(CO)c1ccccc1)C2` (stereo partly shown) [Ipratropium, ipratropium] yielded an IC50 of 5.9 nM.
